Measurements as given in PubChem BioAssay AID904 (National Center for Advancing Translational Sciences (NCATS), 2007).
This is a selection; strong and weak results do not stand in their true shares. Some of these compounds have results that are not shown, active ones among them. Results filed as inconclusive are left out. Calls of active or inactive are those of the source. Calls come from the whole dose curve; as a rule, active = well fitted cell-killing curve with a large enough effect; inconclusive = small, poorly fitted or top-dose-only effect; inactive = no such curve, though single readings can be large or run the other way.

Experiment: qHTS Screen for Compounds that Selectively Target Cancer Cells with p53 Mutations: Cytotoxicity of p53 Null Cells at the Nonpermissive Temperature;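 note: 0% = DMSO only and -100% = full killing by 100 µM tamoxifen; nearly all actives have a fitted effect of over 50% in size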
Settings: H1299 p53-null (neo) cells, 39C, ATPlite viability, 24 h; at 46.1 µM (top of the series)
Excerpt: NIH Chemical Genomics Center [NCGC] NIH Molecular Libraries Screening Centers Network [MLSCN] MLSCN Grant: 1 X01 MH079844-01 Assay Submitter (PI): Dr. SUN, YI, University of Michigan NCGC Assay Overview: Synthetic Lethal Screen for Compounds to Kill Cancer Cells with p53 Mutation. Tumor suppressor gene p53 serves as a major cellular barrier against tumorigenesis. […] The goal of this screening is to identify small molecule probes that selectively kill cancer cells with mutations in p53. This screening was carried out using two lines of H1299 lung cancer cells. The H1299-p53 A138V line express a temperature sensitive p53 mutant (p53ts) in which the mutant p53 protein (A138V) is in the mutant confirmation when grown at 39C (the nonpermissive temperature) and in the wild type conformation when grown at 32C (the permissive temperature). A H1299-neo line (p53 null) grown at both 39C and 32C were used as counter-screens to filter out false positive associated with temperature shifting. The small molecular compounds that selectively target mutant p53-containing cancer cells were selected as candidate probes for further study. A cytotoxicity assay based on the measurement of ATP contents in cells was used in this screen. Concentration-responses of all the compounds in the library collection were determined in qHTS using the cell lines and temperature conditions as above.
NCGC Assay Protocol Summary: Both the H1299-p53A138V and H1299-neo cell lines were provided by Dr.Yi Sun, a PI at the University Michigan. The cells were maintained and cultured at 37C. The resuspended frozen cells were used to plate the cells in the 1536-well assay plates at a density of 600 cells per well in 5 ul medium. The assay plates with the cells were incubated at 37C for 16 to 30 hours before the experiments. The library compounds in DMSO solution were added to the cells in assay plates and incubated 24 hours at 39C (for mutant p53 conformation) or 32C (for normal p53 conformation as control). An ATP_lite assay kit (PerkinElmer) was used to determine the cell viability. Tomaxifen (100uM) was used as the positive control for cell killing. Data were normalized to the controls for basal activity (DMSO only) and 100% killing (100uM tamoxifen). AC50 values were determined from concentration-response data modeled with the standard Hill equation. P53 assay protocol: 1. Reagent; 5 uL H1299-p53A138V or H1299-neo cell cells/well 2. Time; overnight; 37C incubation 3. Compounds; 23 nL; 5.9 nM to 46 uM 4. Controls; 23 nL; Tamoxifen 100 uM 5. Time; 24 hr; 39C incubation 6. Reagent; 3 uL; ATP_Lite reagent 7. Time; 20 min; Room Temperature 8. Detection; Luminescence; Viewlux plate reader Keywords: p53, synthetic lethal, cancer, cell viability, cytotoxicity, H1299 cell line, luminescence, MLSMR, MLSCN, NIH Roadmap, qHTS, NCGC

Row | SMILES | activity, negative = cell killing
1 | CN(C)C1(CNC(=O)c2ccccc2[N+](=O)[O-])CCCCC1 | inactive: 16.2%
2 | CN(C)C1CCCC1OC(=O)C(O)(c1ccccc1)c1ccccc1 (stereo unspecified) | inactive: 4.24%
3 | CCCCOc1ccccc1C(=O)NCC1(N(C)C)CCCCC1 | inactive: -0.248%
4 | CN(C)C1(CNC(=O)c2cccc(Cl)c2)CCCCC1 | inactive: 19.3%
5 | CN(C)C1(CNC(=O)c2ccccc2F)CCCCC1 | inactive: 8.93%
6 | COc1cc(C(=O)NCC2(N(C)C)CCCCC2)cc(OC)c1OC | inactive: 10.9%
7 | Cc1cccc(C(=O)NCC2(N(C)C)CCCCC2)c1 | inactive: -5.07%
8 | CC(C)Oc1ccc(C(=O)NCC2(N(C)C)CCCCC2)cc1 | inactive: -14.4%
9 | COc1cccc(C(=O)NCC2(N3CCOCC3)CCCCC2)c1 | inactive: -3.99%
10 | CC(C)COc1ccc(C(=O)NCC2(N(C)C)CCCCC2)cc1 | inactive: -18.9%
11 | COc1ccc(C(=O)NCC2(N(C)C)CCCCC2)cc1Cl | inactive: 17.8%
